Measured values taken from article PMC7279473, “Insights into the FMNAT Active Site of FAD Synthase: Aromaticity Is Essential for Flavin Binding and Catalysis” (International Journal of Molecular Sciences, 2020).

Legend:
purified protein [1] = substrate: Nc1ncnc2c1ncn2[C@@H]1O[C@H](COP(=O)(O)OP(=O)(O)OP(=O)(O)O)[C@@H](O)[C@H]1O; test: purified protein; details: FMNAT activity, saturating FMN, 20 mM PIPES, 10 mM MgCl2, pH 7.0, 25 °C
purified protein [2] = substrate: Cc1cc2nc3c(=O)[nH]c(=O)nc-3n(C[C@H](O)[C@H](O)[C@H](O)COP(=O)(O)O)c2cc1C; test: purified protein; details: FMNAT activity, saturating ATP, 20 mM PIPES, 10 mM MgCl2, pH 7.0, 25 °C

B1: CaFADS (Corynebacterium ammoniagenes) (protein)
chain: MDIWYGTAAVPKDLDNSAVTIGVFDGVHRGHQKLINATVEKAREVGAKAIMVTFDPHPVSVFLPRRAPLGITTLAERFALAESFGIDGVLVIDFTRELSGTSPEKYVEFLLEDTLHASHVVVGANFTFGENAAGTADSLRQICQSRLTVDVIDLLDDEGVRISSTTVREFLSEGDVARANWALGRHFYVTGPVVRGAGRGGKELGFPTANQYFHDTVALPADGVYAGWLTILPTEAPVSGNMEPEVAYAAAISVGTNPTFGDEQRSVESFVLDRDADLYGHDVKVEFVDHVRAMEKFDSVEQLLEVMAKDVQKTRTLLAQDVQAHKMAPETYFLQAES
- Km (purified protein [1]): 43 ± 8 µM
- kcat (purified protein [1]): 0.65 ± 0.017 s⁻¹
- kcat/Km (purified protein [1]): 15000 M⁻¹ s⁻¹
- Km (purified protein [2]): 6 ± 1 µM
- kcat (purified protein [2]): 0.65 ± 0.017 s⁻¹
- kcat/Km (purified protein [2]): 100000 M⁻¹ s⁻¹
